Test results taken from patent US9956243B2, “Combination treatment for acute myeloid leukemia (AML)” (Hoffmann-La Roche Inc., priority 2013, dated 2018).

Procedure: Female SCID beige mice (10/group), obtained from Charles River Laboratories (Wilmington, Del.) were used when they were approximately 8-12 weeks old and weighed approximately 20-25 grams. The health of the mice was assessed daily by gross observation and analyses of blood samples taken from sentinel animals housed on shared shelf racks. All animals were allowed to acclimate and recover from any shipping-related stress for a minimum of 72 hours prior to experimental use. Autoclaved water and irradiated food (5058-ms Pico Lab mouse chow, Purina Mills, Richmond, Ind.) were provided ad libitum, and the animals were maintained on a 12 hour light and dark cycle. Cages, bedding and water bottles were autoclaved before use and changed weekly. All animal experiments were conducted in accordance with the Guide for the Care and Use of Laboratory Animals, local regulations, and protocols approved by the Roche Animal Care and Use Committee in an AAALAC accredited facility.
It was then filtered thru a 0.22 micron filter into a septum sealed vial for intravenous administration. […] Stock cytarabine (Ara-C injection, 100 mg/ml) was diluted in sterile 0.9% sodium chloride to 44 mg/ml according to manufacturer's instructions and dosed at 200 mg/kg iv twice weekly.
Treatment duration was 3 weeks.
For increased life span (ILS) assessment, animal body weights were measured two to three times per week, and animals were monitored daily for any clinical signs of toxicity or excessive tumor burden (i.e. hind limb paralysis or morbidity). In addition, progression of disease was monitored by in vivo bioluminescent imaging (BLI) using IVIS® Spectrum system. For each BLI session, mice received 100 mg/kg D-luciferin (Caliper Life Sciences/Perkin-Elmer) via ip injections and were imaged at 20 min post luciferin injection at either a 5 s or a 10 s exposure time. Images were captured by the IVIS® Spectrum system and data were collected and analyzed with Living Image 4.2.0 software (Caliper Life Sciences, Hopkinton, Mass.). Total photon fluxes (ph/s) representing luciferase activity within each fixed region of interest (ROI) covering whole tumors of individual mice were determined. The actual images of mice are not disclosed herein.
Weight loss was graphically represented as percent change in mean group body weight, using the formula: ((W−W0)/W0)×100, where ‘W’ represents mean body weight of the treated group at a particular day, and ‘W0’ represents mean body weight of the same treated group at initiation of treatment.

[1] = compound I-B 437 mg/kg q7d iv, 10 mice/group

4-{[(2R,3S,4R,5S)-3-(3-Chloro-2-fluoro-phenyl)-4-(4-chloro-2-fluoro-phenyl)-4-cyano-5-(2,2-dimethyl-propyl)-pyrrolidine-2-carbonyl]amino}-3-methoxy-benzoic acid 1-mPEG-carbonyloxy-ethyl ester (mPEG, average MW, ˜2200) [compound I-B]
# of animals ≥20% body weight loss [1]: 0
% Change in Body Weight at Day 17 [1]: −2.8%
Mortality (compound I-B 437 mg/kg q7d iv, 10 mice/group, reason undetermined): 1
deaths after iv dosing (directly after iv dosing, undetermined cause (potentially technical)): sporadic deaths
